Measurements from patent publication US20260124315A1, “CATALYST AUGMENTED TARGET SPECIFIC POLYPEPTIDE” (TECHNISCHE UNIVERSITAT BERLIN, priority 2022, published 2026).

What was measured:
[1] = target: T1, Her2/ERBB2 Protein, Human, Recombinant (ECD), Biotinylated (Homo sapiens, UniProt P04626); assay: Fluorogenic catalysis on HER2-biotinylated streptavidin beads; conditions: NB—Pd bound to HER2-SAV-beads, washed, 24 h
T1 construct: Her2/ERBB2 Protein, Human, Recombinant (ECD), Biotinylated; purchased SinoBiological 10004-HCCH—B
Experimental: An increment of the fluorescence signal was observed by the resorufin release.
On HER2-biotinylated streptavidin beads. 6 μg of Her2/ERBB2 Protein, Human, Recombinant (ECD), Biotinylated (SinoBiological, 10004-HCCH—B) were dissolved in 100 μL PBS. […] The resin suspension was shaken at 700 rpm and 37° C. in a Thermomixer for 1 h. Biotin (200 μM) in PBS (100 μL) was added and incubated for 30 min at 37° C., 700 rpm in the Thermomixer to block free Streptavidin. Resin was washed twice with PBS and NB—Pd (1.6 nmol, 100 μL) was added. After incubation at 700 rpm and 37° C. in a Thermomixer for 1 h, resin was washed twice with PBS and ProRes (100 μM) in PBS (100 μL) was added. Resin was incubated at 1200 rpm and 37° C. in a Thermomixer for 24 h. Fluorescence was measured in a FLUOstar Omega multilabel reader (Ex/Em: 540/590 nm). Sensor ProRes alone (100 μM), or in the presence of Streptavidin Sepharose resin pre-incubated with NB—Pd, were used as negative controls and fluorescent dye Resorufin (100 μM) was used as a reference control. Reactions were done in triplicates.
Streptavidin beads (SAV) were treated with the biotinylated HER2 protein (HER2-SAV-beads). Then, HER2-SAV-beads were incubated with the NB—Pd for 1 h at 37° C. in a Thermomixer. After washing with PBS, the sensor (ProRes) was added and the reaction was monitored after 24 h using a multilabel fluorescence reader.

HER2 = target: T2, HER2 (Homo sapiens, UniProt P04626); conditions: published Kd of HER2 nanobody; cited from earlier work
T2 construct: endogenous in cells; host or cells: SK-BR-3

Row | Molecule | fluorescence after catalysis of ProRes on HER2-SAV-beads [1] | Kd (HER2) [nM]
1 | NB—Pd: HER2 nanobody-HRGDH fusion complexed with Pd after incubation with Pd(OAc)2 at molar ratio 1:1 (conjugate) VHH: QVQLQESGGGSVQAGGSLKLTCAASGYIFNSCGMGWYRQSPGRERELVSRISGDGDTWHKESVKGRFTISQDNVKKTLYLQMNSLKPEDTAVYFCAVCYNLETYWGQGTQVTVSSGGGGSHRGDHENLYFQSHHHHHH | Increased fluorescence | –
2 | NB: HER2 nanobody fused via GGGGS spacer to the peptide HRGDH; the Kd is the published value of HER2-NB (protein) VHH: QVQLQESGGGSVQAGGSLKLTCAASGYIFNSCGMGWYRQSPGRERELVSRISGDGDTWHKESVKGRFTISQDNVKKTLYLQMNSLKPEDTAVYFCAVCYNLETYWGQGTQVTVSSGGGGSHRGDHENLYFQSHHHHHH | – | 4.7
